# Reference: patent publication US20150148256A1, “BIOLUMINESCENCE IMAGING-BASED SCREENING ASSAY AND INHIBITORS OF ABCG2” (THE JOHNS HOPKINS UNIVERSITY, priority 2008, published 2015)
# Test system: ABCG2-overexpressing NCI-H460/MX20 cells
# Test: Mitoxantrone (MTX) resensitization assay (XTT)
# Conditions: H460/MX20 cells with MTX
compound,measurement,value
CC(=O)c1ccc2c(c1)N(CCCN1CCC(CCO)CC1)c1ccccc1S2 [piperacetazine],MTX (mitoxantrone resensitization assay),Y
